Measured values as given in PubChem BioAssay AID687 (PCMD, 2007).
The list shows a part of the results, in another mix than the full data. Calls of active or inactive are those of the source.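 The calls were made as follows: active = inhibition above 40% in the primary screen; inactive = the rest.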

By UniProt entry, the sequences of proteins in these tests, tags left out.
UniProt P03951, whole entry, looked up: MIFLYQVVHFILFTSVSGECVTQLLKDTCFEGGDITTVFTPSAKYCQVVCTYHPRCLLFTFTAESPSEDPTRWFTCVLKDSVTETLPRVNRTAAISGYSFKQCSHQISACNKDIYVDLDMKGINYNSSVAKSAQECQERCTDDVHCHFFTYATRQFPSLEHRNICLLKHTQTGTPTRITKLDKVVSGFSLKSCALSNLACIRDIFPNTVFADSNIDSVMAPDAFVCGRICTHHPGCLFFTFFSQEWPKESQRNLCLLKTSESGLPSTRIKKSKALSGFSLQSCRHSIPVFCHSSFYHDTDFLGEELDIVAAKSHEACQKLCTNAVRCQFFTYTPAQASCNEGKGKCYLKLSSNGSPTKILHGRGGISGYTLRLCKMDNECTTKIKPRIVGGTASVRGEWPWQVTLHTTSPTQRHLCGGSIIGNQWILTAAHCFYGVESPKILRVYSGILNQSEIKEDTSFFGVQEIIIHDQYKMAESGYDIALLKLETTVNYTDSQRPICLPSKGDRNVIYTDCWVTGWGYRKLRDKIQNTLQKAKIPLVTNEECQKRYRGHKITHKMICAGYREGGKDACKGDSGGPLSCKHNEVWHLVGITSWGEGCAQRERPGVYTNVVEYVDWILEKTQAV

Molecular target: Coagulation factor XI (Homo sapiens) (UniProt P03951)
Assay: human FXIa protease inhibitors, primary screen, biochemical, single compound per well (AID 687);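 also: 0% = enzyme without compound and 100% = blank wells lacking enzyme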
Conditions: purified human FXIa, fluorogenic AMC substrate cleavage; at 10 µM; active compounds read high

Structure (SMILES) | inhibition
Cc1cccc(OCC(=O)OC2CN3CCC2CC3)c1 (stereo not drawn) | inactive: -1.47%
CC1(CBr)Cn2c(nc3ccccc3c2=O)S1 (stereo not drawn) | inactive: 2.05%
CCC(C)N(CC(C)C)C(=S)SC(NC(C)=O)C(Cl)(Cl)Cl (stereo not drawn) | inactive: 1.57%
Oc1ccccc1CNc1ccccn1 | inactive: 4.18%
CCOP(=O)(Nc1ccccc1)OCC | inactive: -4.56%
CC1CCN(C(=O)Oc2c(Cl)cc(Cl)c3cccnc23)CC1 | inactive: 4.51%
O=[N+]([O-])c1cccc2n[nH]nc12 | inactive: 18.6%
COC(=O)c1cc2c(s1)N=C(c1ccccc1)N(C)P2(=O)N1CCOCC1 (stereo not drawn) | inactive: -0.3%
